{"source": "patent US20220073475A1", "about": "“5-MEMBERED HETEROARYL COMPOUNDS CONTAINING A HYDROXAMATE MOIETY AND THEIR USE” (UNIVERSITE DE LILLE, priority 2019, published 2022)", "key": {"[1]": {"tested_on": "HeLa cells", "assay": "Nelfinavir (NEL) potency increase, ratio of AUC of cytotoxicity", "format": "cell-based, human", "settings": "agent NEL, compound 3 at 15 μM", "from_the_text": "(§1) Human HeLa cells (uterine cervical carcinoma) are maintained in DMEM medium supplemented with GlutaMAX™, 10% fetal bovine serum and 1% penicillin-streptomycin.\n(§2) We developed a cell-based, high content assay allowing the rapid detection and quantification of apoptotic cells. Caspase-3/7 activity was detected in real-time using the NucView™ 488 Caspase-3 substrate (Biotium), where the caspase-3/7 substrate peptide sequence DEVD is attached to a nucleic acid dye. The NucView™ 488 reagent crosses the plasma membrane to enter the cytoplasm, where the dye is unable to bind to DNA and remains non-fluorescent. Once the substrate has been cleaved by activated caspase-3/7 in apoptotic cells, the high-affinity DNA dye is released and migrates to the cell nucleus to stain the nucleus with a bright green fluorescence. All cell nuclei were also labeled with Hoechst 33342 (Ozyme).\n(§3) For HeLa and MCF7 cells, briefly, cells were seeded in 384-microtiter well plate (1500 HeLa cells or 5000 MCF7 cells in 40 μL full medium per well) and let to attach overnight. […] Four fields per well were read with the 20× objective in a confocal mode. […]\n(§4) For all cells, Columbus software (Perkin) was used for image quantification and analysis. First, Hoechst 33342 staining was used for an automated detection of nuclei, in which the mean fluorescence intensity for NucView™ 488 was quantified. […]"}, "[2]": {"tested_on": "OPM2 cells", "assay": "Panobinostat (PAN) potency increase, ratio of AUC of cytotoxicity", "format": "cell-based, human", "settings": "OPM2, agent PAN, compound 3 at 15 μM", "from_the_text": "(§5) Human multiple myeloma cells OPM2 (ACC 50, DSMZ) are maintained at 0.3-0.7 10^6 cells/mL in RPMI1640 medium supplemented with GlutaMAX™, 10% fetal bovine serum and 1% penicillin-streptomycin.\nas §2, with “All cell nuclei were also labeled with Hoechst 33342 (Ozyme).” left out\n(§6) For OPM2, briefly, nanoliters of compound and cytotoxic agent in DMSO stock solutions were first transferred and combined in 384-microtiter well plate using an Echo555 liquid handler (Labcyte). The exact volume of each solution to be transferred was calculated to achieve subsequently the target concentration in the 70 μL volume incubate. […] Four fields per well were read with the 20× objective in a confocal mode. […]\n(§7) For all cells, Columbus software (Perkin) was used for image quantification and analysis. […]"}, "[3]": {"tested_on": "HeLa cells", "assay": "CFZ potency increase, ratio of CC50 of CFZ alone / with compound", "format": "cell-based, human", "settings": "compound at 7.5 μM", "from_the_text": "as §1, §2, §3, §4"}, "[4]": {"tested_on": "TLM1 cells", "assay": "X-ray radiation in combination with compound, propidium iodide dead cells, ratio of corrected AUC", "format": "cell-based, canine", "settings": "TLM1, compound at 30 μM", "procedure": "(§8) Canine melanoma TLM-1 cells are maintained in DMEM medium supplemented with GlutaMAX™, 10% fetal bovine serum, 1× Hepes and 1% penicillin-streptomycin.\nTLM-1 cells were seeded with the BioTek MicroFlo™ dispenser in μClear® black 384-well plates (Greiner) at the density of 20,000 cells/mL in 50 μL. Compounds for pre-treatment were added 2 h after the seeding, using an Echo 550 (Labcyte). The next day, cells were washed five times with 40 μL media without phenol red with a plate washer (Hydrospeed, Tecan). Cells were irradiated with 4, 6, 8, 12, 16, 20 and 24 Gray (Gy). […] This step was repeated every 72 h after radiation. Plates were incubated at 37° C. and 5% CO2. […] 4 images per well were collected. Images were analyzed with Columbus software (Perkin Elmer). In this system we used predefined building blocks to measure different parameters on nuclei detected. We applied a threshold based on propidium iodide intensity in nuclei of controls to select and count dead cells. By dividing the number of dead cells by the number of nuclei detected we obtained the percentage of dead cells. AUC were determined in one experiment with triplicate incubates on percentage of cells labelled with propidium iodide and were corrected by the percentage of cells labelled with propidium iodide at 0 Gy. […]"}, "[5]": {"tested_on": "MCF7 cells", "assay": "CFZ potency increase, ratio of CC50 of CFZ alone / with compound", "format": "cell-based, human", "settings": "MCF7, compound at 15 μM", "procedure": "Human epithelial MCF7 cells (mammary gland adenocarcinoma) are maintained in EMEM medium supplemented with GlutaMAX™, 10% fetal bovine serum, 0.01 mg insulin and 1% penicillin-streptomycin.\nas §2, §3, §4"}, "[6]": {"tested_on": "OPM2 cells", "assay": "CFZ potency increase, ratio of CC50 of CFZ alone / with compound", "format": "cell-based, human", "from_the_text": "as §5\nas §2, with “All cell nuclei were also labeled with Hoechst 33342 (Ozyme).” left out\nas §6, §7"}, "[7]": {"tested_on": "TLM1 cells", "assay": "UV-C radiation in combination with compound, ratio of % propidium iodide labelled cells", "format": "cell-based, canine", "settings": "TLM1, 15 μM compound 24 h before and just after UV-C, 48 h after UV-C at 400 J/m^2, mean of three experiments", "procedure": "as §8\nTLM-1 cells were seeded in μClear® black 384-well plates (Greiner) at the density of 60,000 cells/mL in 50 Compounds were added 24 h after the seeding, using an acoustic nanodispensor Echo 550 (Labcyte). The next day, cells were washed five times with 40 μL phosphate buffer saline (PBS) with a plate washer (Hydrospeed, Tecan). 10 μL of PBS was left per well. Plate was submitted to UV-C(Stratalinker® UV Crosslinker, Artisan Technologies Group) with different doses (J/m^2). After UV-C radiation, compounds were added using an acoustic nanodispensor Echo 550 (Labcyte). We complete to 50 μL of media per well. Plates were incubated at 37° C. and 5% CO2. Some hours before image acquisition, propidium iodide (1 Thermofisher) for labeling dead cells and Hoechst 33342 (80 ng/mL, Thermofisher) for nuclei staining were added using an acoustic nanodispensor Echo 550 (Labcyte). […] Images were analyzed with Columbus software (Perkin Elmer). In this system we used predefined building blocks to measure different parameters on nuclei detected. […] By dividing the number of dead cells by the number of nuclei detected we obtained the percentage of dead cells. […]"}}}
{"smiles": "O=C(C[C@@H](Cc1ccc2ccccc2c1)n1cc(CNC(=O)c2ccc(F)cc2)nn1)NO", "note": "[Compound 3, 4-Fluoro-N-[1-(R-2-hydroxycarbamoyl-1-naphthalen-2-ylmethyl-ethyl)-1H-[1,2,3]-triazol-4-ylmethyl]-benzamide]", "values": [{"measurement": "Activity: ratio of AUC of cytotoxity of NEL with and without 15 μM (3)", "setting": "[1]", "result": 1.5}, {"measurement": "Activity: ratio of AUC of cytotoxity of PAN with and without 15 μM (3)", "setting": "[2]", "result": 2.1}, {"measurement": "Activity: ratio (CC50 of CFZ alone)/(CC50 of CFZ in combination with compound of the invention)", "setting": "[3]", "result": 2.8}, {"measurement": "Activity: ratio of corrected AUC of X-ray radiation in combination with compound / corrected AUC of X-ray radiation alone", "setting": "[4]", "result": 1.8}, {"measurement": "Activity: ratio (CC50 of CFZ alone)/(CC50 of CFZ in combination with compound of the invention)", "setting": "[5]", "result": 2.1}, {"measurement": "Activity: ratio (CC50 of CFZ alone)/(CC50 of CFZ in combination with compound of the invention)", "setting": "[6]; OPM2, compound at 7.5 μM (Table 5)", "result": 1.9}, {"measurement": "Activity: ratio (CC50 of CFZ alone)/(CC50 of CFZ in combination with compound of the invention)", "setting": "[6]; OPM2, compound at 7.5 μM (Table 6)", "result": 1.9}, {"measurement": "Activity: ratio of percentage of cells labelling with propidium iodide, compound vs vehicle", "setting": "[7]", "result": 1.3}]}
